The values that follow come from US6979436B2, “Opioid metallopeptide compositions and methods” (Palatin Technologies, Inc., priority 1999, dated 2005).

Amino acid sequences for entries named in this document (tags omitted). A change or cut given only in a name is not applied to a line headed by its entry.
UniProt P32300, whole entry: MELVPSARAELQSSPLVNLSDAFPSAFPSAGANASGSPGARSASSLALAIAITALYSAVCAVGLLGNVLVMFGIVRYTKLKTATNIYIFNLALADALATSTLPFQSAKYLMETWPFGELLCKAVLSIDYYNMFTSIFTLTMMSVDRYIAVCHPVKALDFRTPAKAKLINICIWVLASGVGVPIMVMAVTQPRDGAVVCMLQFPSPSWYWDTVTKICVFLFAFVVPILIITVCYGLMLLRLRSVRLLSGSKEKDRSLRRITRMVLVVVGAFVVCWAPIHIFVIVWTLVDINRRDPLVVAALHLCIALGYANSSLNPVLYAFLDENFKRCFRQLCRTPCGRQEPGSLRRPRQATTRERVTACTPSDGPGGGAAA

The assay has as its target δ receptors, mouse vas deferens (MVD) (Mus musculus, UniProt P32300). The assay can be described thus: mouse vas deferens (MVD) in vitro functional assay. The conditions noted are these: read-out: In Vitro Functional Assay [ED50 in μM] MVD, rhenium-complexed peptides.

For YCGFC [Tyr-Cys-Gly-Phe-Cys-NH2], the EC50 amounted to 1.47 µM.
